# Structures can show the parent of a compound that is named as a salt.
# System: Ba/F3 EML4-ALK L1196M cells
# Format: cell-based, rodent
# Conditions: Ba/F3 EML4-ALK L1196M cells; method as Experimental Example 4; type of value not given
row,Compound,BaF3 EML4 ALK L1196M [µM]
1,"COc1ccc(C2(CN)CCCC2)cc1Nc1ncc(Cl)c(Nc2ccccc2S(=O)(=O)C(C)C)n1 [Example 1, N2-(5-(1-(aminomethyl)cyclopentyl)-2-methoxyphenyl)-5-chloro-N4-(2-(isopropylsulfonyl)phenyl)pyrimidine-2,4-diamine]",1.46
2,"COc1ccc(CC2(N)CC2)cc1Nc1ncc(Cl)c(Nc2ccccc2S(=O)(=O)C(C)C)n1 [Example 3, N2-(5-((1-aminocyclopropyl)methyl)-2-methoxyphenyl)-5-chloro-N4-(2-(isopropylsulfonyl)phenyl)pyrimidine-2,4-diamine]",0.18
3,COc1ccc(C2(CN3CCCCC3)CCCC2)cc1Nc1ncc(Cl)c(Nc2ccccc2S(=O)(=O)C(C)C)n1 [Example 5],2
4,"COc1ccc(C2(CN3CCOCC3)CCCC2)cc1Nc1ncc(Cl)c(Nc2ccccc2S(=O)(=O)C(C)C)n1 [Example 6, 5-chloro-N4-(2-(isopropylsulfonyl)phenyl)-N2-(2-methoxy-5-(1-(morpholinomethyl)cyclopentyl)phenyl)pyrimidine-2,4-diamine]",2.1
5,"COc1ccc(CCNS(C)(=O)=O)cc1Nc1ncc(Cl)c(Nc2ccccc2S(=O)(=O)C(C)C)n1 [Example 8, N-(3-(5-chloro-4-(2-(isopropylsulfonyl)phenylamino)pyrimidine-2-ylamino)-4-methoxyphenethyl) methanesulfonamide]",0.97
6,"CNCCc1ccc(OC)c(Nc2ncc(Cl)c(Nc3ccccc3S(=O)(=O)C(C)C)n2)c1 [Example 10, 5-chloro-N4-(2-(isopropylsulfonyl)phenyl)-N2-(2-methoxy-5-(2-(methylamino)ethyl)phenyl)pyrimidine-2,4-diamine]",0.73
7,"COc1ccc(CCNC(=O)Cc2ccccc2)cc1Nc1ncc(Cl)c(Nc2ccccc2S(=O)(=O)C(C)C)n1 [Example 12, N-(3-(5-chloro-4-(2-(isopropylsulfonyl)phenylamino)pyrimidine-2-ylamino)-4-methoxyphenethyl)-2-phenylacetamide]",0.97
8,"CCNCCc1ccc(OC)c(Nc2ncc(Cl)c(Nc3ccccc3S(=O)(=O)C(C)C)n2)c1 [Example 13, 5-chloro-N2-(5-(2-(ethylamino)ethyl)-2-methoxyphenyl)-N4-(2-(isopropylsulfonyl)phenyl)pyrimidine-2,4-diamine]",0.73
9,"COc1ccc(CCNC(C)C)cc1Nc1ncc(Cl)c(Nc2ccccc2S(=O)(=O)C(C)C)n1 [Example 15, 5-chloro-N2-(5-(2-(isopropylamino)ethyl)-2-methoxyphenyl)-N4-(2-(isopropylsulfonyl)phenyl)pyrimidine-2,4-diamine]",0.68
10,"CCNC(=O)NCCc1ccc(OC)c(Nc2ncc(Cl)c(Nc3ccccc3S(=O)(=O)C(C)C)n2)c1 [Example 16, 1-(3-(5-chloro-4-(2-(isopropylsulfonyl)phenylamino)pyrimidine-2-ylamino)-4-methoxyphenethyl)-3-ethylurea]",0.8
11,"COc1ccc(CCNC(=O)NC2CCCCC2)cc1Nc1ncc(Cl)c(Nc2ccccc2S(=O)(=O)C(C)C)n1 [Example 17, 1-(3-(5-chloro-4-(2-(isopropylsulfonyl)phenylamino)pyrimidine-2-ylamino)-4-methoxyphenethyl)-3-cyclohexylurea]",0.88
12,"COc1ccc(CCNC(=O)Nc2ccccc2)cc1Nc1ncc(Cl)c(Nc2ccccc2S(=O)(=O)C(C)C)n1 [Example 18, 1-(3-(5-chloro-4-(2-(isopropylsulfonyl)phenylamino)pyrimidine-2-ylamino)-4-methoxyphenethyl)-3-phenylurea]",1.9
13,"CNC(=S)NCCc1ccc(OC)c(Nc2ncc(Cl)c(Nc3ccccc3S(=O)(=O)C(C)C)n2)c1 [Example 19, 1-(3-(5-chloro-4-(2-(isopropylsulfonyl)phenylamino)pyrimidine-2-ylamino)-4-methoxyphenethyl)-3-methylthiourea]",1.1
14,"COc1ccc(CCNC(=S)NCc2ccccc2)cc1Nc1ncc(Cl)c(Nc2ccccc2S(=O)(=O)C(C)C)n1 [Example 20, 1-benzyl-3-(3-(5-chloro-4-(2-(isopropylsulfonyl)phenylamino)pyrimidine-2-ylamino)-4-methoxyphenethyl)thiourea]",0.41
15,"COc1ccc(CCN2CCCCC2)cc1Nc1ncc(Cl)c(Nc2ccccc2S(=O)(=O)C(C)C)n1 [Example 21, 5-chloro-N4-(2-(isopropylsulfonyl)phenyl)-N2-(2-methoxy-5-(2-(piperidine-1-yl)ethyl)phenyl)pyrimidine-2,4-diamine]",0.09
16,"COc1ccc(CCN2CCOCC2)cc1Nc1ncc(Cl)c(Nc2ccccc2S(=O)(=O)C(C)C)n1 [Example 22, 5-chloro-N4-(2-(isopropylsulfonyl)phenyl)-N2-(2-methoxy-5-(2-morpholinoethyl)phenyl)pyrimidine-2,4-diamine]",0.28

row,Compound,BaF3 EML4 ALK L1196M [µM]
1,"CCNC(=S)NCCc1ccc(OC)c(Nc2ncc(Cl)c(Nc3ccccc3S(=O)(=O)C(C)C)n2)c1 [Example 23, 1-(3-(5-chloro-4-(2-(isopropylsulfonyl)phenylamino)pyrimidine-2-ylamino)-4-methoxyphenethyl)-3-ethylthiourea]",1.9
2,"COc1ccc(CCNCC(=O)O)cc1Nc1ncc(Cl)c(Nc2ccccc2S(=O)(=O)C(C)C)n1 [Example 27, 2-(3-(5-chloro-4-(2-(isopropylsulfonyl)phenylamino)pyrimidine-2-ylamino)-4-methoxyphenethylamino)acetic acid]",0.64
3,"COc1ccc(CNC(=O)C(F)(F)F)cc1Nc1ncc(Cl)c(Nc2ccccc2S(=O)(=O)C(C)C)n1 [Example 28, N-(3-((5-chloro-4-((2-(isopropylsulfonyl)phenyl)amino)pyrimidine-2-yl)amino)-4-methoxybenzyl)-2,2,2-trifluoroacetamide]",0.8
4,"COc1ccc(CN)cc1Nc1ncc(Cl)c(Nc2ccccc2S(=O)(=O)C(C)C)n1 [Example 29, N2-(5-(aminomethyl)-2-methoxyphenyl)-5-chloro-N4-(2-(isopropylsulfonyl)phenyl)pyrimidine-2,4-diamine]",0.12
5,"COc1ccc(CCNC(=O)C(F)(F)F)cc1Nc1ncc(Cl)c(Nc2ccccc2S(=O)(=O)C(C)C)n1 [Example 30, N-(3-(5-chloro-4-(2-(isopropylsulfonyl)phenylamino)pyrimidine-2-ylamino)-4-methoxyphenethyl)-2,2,2-trifluoroacetamide]",0.32
6,"CC(C)Oc1ccc(CCN)cc1Nc1ncc(Cl)c(Nc2ccccc2S(=O)(=O)C(C)C)n1 [Example 31, N2-(5-(2-aminoethyl)-2-isopropoxyphenyl)-5-chloro-N4-(2-(isopropylsulfonyl)phenyl)pyrimidine-2,4-diamine]",1.2
7,"COc1ccc(CCN)cc1Nc1ncc(Cl)c(Nc2ccc(F)cc2S(=O)(=O)C(C)C)n1 [Example 32, N2-(5-(2-aminoethyl)-2-methoxyphenyl)-5-chloro-N4-(4-fluoro-2-(isopropylsulfonyl)phenyl)pyrimidine-2,4-diamine]",1.8
8,"COc1ccc(CCN)cc1Nc1ncc(Cl)c(Nc2cc(F)ccc2S(=O)(=O)C(C)C)n1 [Example 33, N2-(5-(2-aminoethyl)-2-methoxyphenyl)-5-chloro-N4-(5-fluoro-2-(isopropylsulfonyl)phenyl)pyrimidine-2,4-diaminehydrochloride]",10
9,"COc1ccc(CCN)cc1Nc1ncc(Cl)c(Nc2c(F)cccc2S(=O)(=O)C(C)C)n1 [Example 34, N2-(5-(2-aminoethyl)-2-methoxyphenyl)-5-chloro-N4-(2-fluoro-6-(isopropylsulfonyl)phenyl)pyrimidine-2,4-diaminehydrochloride]",10
10,"COc1ccc(C(C)(C)CN)cc1Nc1ncc(Cl)c(Nc2ccccc2S(=O)(=O)C(C)C)n1 [Example 35, N2-(5-(1-amino-2-methylpropane-2-yl)-2-methoxyphenyl)-5-chloro-N4-(2-(isopropylsulfonyl)phenyl)pyrimidine-2,4-diamine]",5
11,"COc1ccc(C(C)(C)CN)cc1Nc1ncc(Cl)c(Nc2ccc(F)cc2S(=O)(=O)C(C)C)n1 [Example 36, N2-(5-(1-amino-2-methylpropane-2-yl)-2-methoxyphenyl)-5-chloro-N4-(4-fluoro-2-(isopropylsulfonyl)phenyl)pyrimidine-2,4-diamine]",10
12,"COc1ccc(C(C)(C)CN)cc1Nc1ncc(Cl)c(Nc2cc(F)ccc2S(=O)(=O)C(C)C)n1 [Example 37, N2-(5-(1-amino-2-methylpropane-2-yl)-2-methoxyphenyl)-5-chloro-N4-(5-fluoro-2-(isopropylsulfonyl)phenyl)pyrimidine-2,4-diamine]",10
13,"COc1ccc(C(C)(C)CN)cc1Nc1ncc(Cl)c(Nc2c(F)cccc2S(=O)(=O)C(C)C)n1 [Example 38, N2-(5-(1-amino-2-methylpropane-2-yl)-2-methoxyphenyl)-5-chloro-N4-(2-fluoro-6-(isopropylsulfonyl)phenyl)pyrimidine-2,4-diamine]",10
14,"COc1ccc(CCN(CCO)CCO)cc1Nc1ncc(Cl)c(Nc2ccccc2S(=O)(=O)C(C)C)n1 [Example 39, 2,2′-(3-(5-chloro-4-(2-(isopropylsulfonyl)phenylamino)pyrimidine-2-ylamino)-4-methoxyphenethylazeindiyl)diethanol]",1.8
15,"COc1ccc(CCCNC(=O)C(F)(F)F)cc1Nc1ncc(Cl)c(Nc2ccccc2S(=O)(=O)C(C)C)n1 [Example 40, N-(3-(3-((5-chloro-4-((2-(isopropylsulfonyl)phenyl)amino)pyrimidine-2-yl)amino)-4-methoxyphenyl)propyl)-2,2,2-trifluoroacetamide]",1.5

# Source: US10100019B2
